Patent publication US20240065988A1, “COMBINED USE OF KETAMINE AND RETIGABINE (EZOGABINE) FOR THE TREATMENT OF PSYCHIATRIC DISORDERS” (Yeda Research and Development Co. Ltd., priority 2021, published 2024)

Tested on: single cells from the ventral hippocampus (vHipp)
Assay: Single-cell RNA sequencing (scRNA-seq) of the ventral hippocampus after ketamine treatment; differential expression per cell type
Conditions: of the 263 DEGs

CNC1(c2ccccc2Cl)CCCCC1=O (racemic) [ketamine, (R,S)-ketamine] was tested, and the “DEGs significantly dysregulated in more than 1 cluster” value was 31.
